The structures appear in SMILES notation. Marks after values point to notes of the source that are not given here.

The results in this text go back to publication PMC10289903 (Investigational New Drugs, 2023).

In the experiment the test system is locally advanced or metastatic solid tumors. Nature of the experiment: Preliminary antitumor activity (ORR, DCR, SD, PFS; RECIST v1.1). It counts as in vivo, human. Particulars: bid 1: 125 mg bid 5/9 (n=6).

Consider `C=CCn1c(=O)c2cnc(Nc3ccc(N4CCN(C)CC4)cc3)nc2n1-c1cccc(C(C)(C)O)n1` [adavosertib, Adavosertib], for which the “DCR, CP + PR + SD/n (%)” value is recorded as 4 (66.7) CP + PR + SD/n (%); the “Median PFS, months (95% CI)” value is 3.7 (1.5–5.5) months; the “ORR, CP + PR/n (%)” value is recorded as 0^a CP + PR/n (%).
